Source: paper PMC3906007, “Discovery of a Small Molecule Agonist of Phosphatidylinositol 3-Kinase p110α That Reactivates Latent HIV-1” (PLoS ONE, 2014)
Like-named read-outs stand apart in the source and are kept apart here.

System: latent HIV-1 in CD8+-depleted MNC
Details: for Copies HIV RNA/mL: 7 days

In the case of O=C(CCCCCCC(=O)Nc1ccccc1)NO [SAHA, vorinostat, reference compound], the “CD8+-depleted blood mononuclear cell preparations (donors) with increased HIV-1 expression” value (4 donors on suppressive cART tested) is reported as 1 of the 4, the “Copies HIV RNA/mL” value (donor 1, 0.5 µM SAHA, control 96) is reported as 0 copies/mL and the “Copies HIV RNA/mL” value (donor 1, 2 µM SAHA, control 96) is reported as 51 copies/mL. For the same compound, the “Copies HIV RNA/mL” value (donor 2, 0.5 µM SAHA, control 0) was 0 copies/mL, the “Copies HIV RNA/mL” value (donor 2, 2 µM SAHA, control 0) was 24 copies/mL and the “Copies HIV RNA/mL” value (donor 4, 0.5 µM SAHA, control 20) was 0 copies/mL. The “Copies HIV RNA/mL” value (donor 4, 2 µM SAHA, control 20) was 23 copies/mL.
